Measurements: paper PMC11345830, “Exploration of Hydrazide-Based HDAC8 PROTACs for the Treatment of Hematological Malignancies and Solid Tumors” (Journal of Medicinal Chemistry, 2024)

What was measured:
Format in all cases: cell-based
[1] = system: caspase 3/7; test: Caspase 3/7 activity assay, Jurkat; conditions: Jurkat cells, 48 h; 6 plus 19 at 5 μM
Description: (§1) Jurkat cells (10000 cells/well) and HCT116 (2000 cells/well) were seeded in white-walled 96-well plates (Greiner bio-one, Alphen a/d Rijn, The Netherlands) in 50 μL complete medium and cultured overnight. Then, 50 μL of compounds were added to the plates and incubated for 48 h. The Caspase-Glo 3/7 Reagent (Promega Corporation, Madison, WI, USA) was equilibrated to room temperature, and 100 μL of the reagent was added to each well. After incubation at room temperature for 1 h, the luminescence was collected using a Synergy H1 plate reader (Biotek, Winooski, VT, USA).

[2] = system: caspase 3/7; test: Caspase 3/7 activity assay, HCT116; conditions: HCT116 cells, 48 h; 6 plus 19 at 5 μM
Description: as §1

[3] = system: acetyl-SMC3 (Ac-SMC3); test: Ac-SMC3 level in Jurkat cells, Western blot; conditions: 6 h
[4] = system: acetyl-α-tubulin (Ac-Tubulin); test: Ac-Tubulin level in Jurkat cells, Western blot; conditions: 6 h
[5] = system: acetyl-histone H3 (Ac-HH3); test: Ac-HH3 level in Jurkat cells, Western blot; conditions: 6 h
[6] = system: Jurkat cells; test: Apoptosis assay (Annexin V-FITC/PI flow cytometry), Jurkat; conditions: 24 and 48 h
Description: The cell apoptosis assay was performed using eBioscience Annexin V-FITC/PI Apoptosis Detection Kit (Thermo Fisher Scientific, Carlsbad, CA, USA). Jurkat cells (5 × 10^5) and HCT116 cells (3 × 10^5) were treated with different concentrations of test compounds for 24 or 48 h. Cells were harvested after incubation, washed twice in cold PBS, centrifuged, and resuspended in 1X annexin-binding buffer. According to the manufacturer’s instructions, cells were incubated with Annexin V and Propidium iodide (PI) sequentially. All samples were analyzed by NovoCyte Quanteon Flow Cytometer (Agilent Technologies, CA, USA).

CCCCCCNNC(=O)c1ccc(CNC(=O)CN2CCC(c3ccc(NC4CCC(=O)NC4=O)cc3)CC2)cc1 (stereo not drawn) [Z16, 2-(4-(4-((2,6-Dioxopiperidin-3-yl)amino)phenyl)piperidin-1-yl)-N-(4-(2-hexylhydrazine-1-carbonyl)benzyl)acetamide]
caspase 3/7 activity (in words) [1]: significantly increased the caspase 3/7 activity in a dose-dependent manner
caspase 3/7 activity (in words) [2]: significantly increased the caspase 3/7 activity in a dose-dependent manner

O=C(CCCCCCC(=O)Nc1ccccc1)NO [SAHA, reference compound]
level of Ac-SMC3 at 1 μM (in words) [3]: neither 1 μM of pan-HDAC inhibitor SAHA nor 1 μM of HDAC8 inhibitor 6 increased the level of Ac-SMC3
level of Ac-Tubulin (in words) [4]: only observed in the SAHA-treated group
level of Ac-HH3 at 1 μM (in words) [5]: significantly increase
induction of apoptosis (in words) [6]: neither Z16 nor SAHA could effectively induce apoptosis
